Like-named read-outs stand apart in the source and are kept apart here.
Assays:
[1] = human, in vivo
[2] = in vivo, cited from earlier work
[3] = human, in vivo; cited from earlier work
[4] = in vivo

In the case of Teicoplanin, the “adverse reactions in patients with peak concentrations of 70–80 mg/L” value [1] is listed as “no significant adverse reactions”, the “mean CL” value ([2]; human) is listed as 0.317 mL/min/kg and the half-life of elimination [2] is listed as 30 to 180 h. The “trough concentration at which development of hepatic function disorders would be more frequent” value [3] was “over 30 mg/L”, the “trough concentration at which elevated serum creatinine level would significantly increase” value [3] was greater than 60 mg/L and the “trough concentration suggested to be safe” value [3] was “less than 30 mg/L”. The “trough concentration with increased risk of organ toxicity” value [3] was “greater than 40 mg/L”, the CL ([4]; human, iv) was 0.008 ± ± 0.003 L/h/kg and the “θCL, typical value of apparent clearance” value ([4]; human, iv) was 0.13 L/h. The CL ([4]; human, SD) was 0.013 ± 0.003 L/h/kg and the “θCL, typical value of apparent clearance” value [4] was 0.13 L/h.
